In patent US20130012466A1 (priority 2006, published 2013):
Read-outs that look alike come from different tables or passages of the source.

Tested on: ADR-RES
Test: Cytotoxicity assay (cell titer-glo and calcein AM), ADR-RES

SMILES | IC50 (read-out: Cytotoxicity IC50, NCI/ADR RES, calcein, NCI/ADR RES, calcein AM readout, % error in parentheses) [nM] | IC50 (Homo sapiens, read-out: IC50 (ADR-RES)) [nM]
COc1cccc2c1C(=O)c1c(O)c3c(c(O)c1C2=O)C[C@@](O)(C(=O)CO)C[C@@H]3O[C@H]1C[C@H](N)[C@H](O)[C@H](C)O1 [doxorubi] | 174 | 
COc1cccc2c1C(=O)c1c(O)c3c(c(O)c1C2=O)C[C@@](O)(C(=O)CO)C[C@@H]3O[C@H]1C[C@H](N)[C@H](O)[C@H](C)O1 [doxorubicin, reference compound] |  | 174
